Experimental data from PubChem BioAssay AID651819 (National Center for Advancing Translational Sciences (NCATS), 2012).
The entries are a selection whose mix differs from that of the whole data set. Active and inactive are the calls of the source. Rule as the data show it: active = activity change below about -30%; inactive = the rest.

System: cytosolic chaperonin (CCT/TRiC complex)
Test: High-Throughput Screening for Modulators of Cytosolic Chaperonin Activity
Conditions: purified chaperonin ATPase assay, HTRF ADP detection, 30 min; hits give low values
Excerpt: The eukaryotic chaperonin named TRiC (for TCP-1 ring complex), also called CCT (for chaperonin containing TCP1), is an essential and conserved chaperone required for the folding and activation of 10-15% of the proteins encoded by the human genome. […] Despite its central role in cellular folding, little is known about TRiC mechanism and mode of substrate binding. Currently, no specific TRiC inhibitors are available. Given the early promise of other chaperone-directed inhibitors as cancer therapeutics (e.g. HSP90 inhibitors), inhibitors of TRiC activity may also selectively target transformed cells and have potential use as therapeutics for cancer.
To this end, a miniaturized assay was developed to screen against the Molecular Libraries Small Molecule Repository (MLSMR).
NIH Chemical Genomics Center [NCGC]
NIH Molecular Libraries Probe Centers Network [MLPCN]
Assay Submitter (PI): Judith Frydman, Stanford University
1.5 uL/well TRiC enzyme suspended in buffer (30 mM TRIS pH7.4, 100 mM KCl, 5 mM MgCl2, 1 mM DTT) was added with BioRAPTR FRD dispenser at 40 nM or 20 nM (based on the enzymatic activity of used batches) final concentration to a white solid bottom medium binding 1536-well plate (Greiner Bio-One, Monroe, NC), and quickly spanned down. 23 nl/well of compound solutions in DMSO were added with a pintool transfer (Kalypsis, San Diego, CA) at a single 76 uM final concentration. Next, 1.5 µl/well ATP was dispensed with BioraptR at 10 uM final concentration after which the plates were incubated at 37 deg C for 30 min. HTRF(R) Transcreener(R) ADP (Cisbio US, Bedford, MA) detection reagents were prepared accordingly to the protocol and dispensed into the plate (1.5 uL/well each), incubated for 30 min at ambient temperature. Then, the plates were read using Envision reader with excitation at 330nm and emission at 615nm (Eu(3)-Cryptate donor signal) and 665nm (d2 acceptor signal). The ratio of […] was calculated for each well.
% is scaled to controls: 0 for no effect and ±100 for the full control effect.

Q: For `Oc1ccccc1CNc1ccccn1`, which activity change is on record?
A: inactive: -2.02%

Q: How did the activity change turn out when `O=C(NC(Sc1ccncn1)C(Cl)(Cl)Cl)c1ccccc1` (stereo not given) was run?
A: inactive: -6.29%

Q: Which activity change does the source give for `Nc1cc(N)c2nonc2c1[N+](=O)[O-]` here?
A: inactive: -0.964%

Q: Which activity change does the source give for `CC(C)CC(=O)NC(Sc1ccc(Cl)cc1)C(Cl)(Cl)Cl` (stereo not given) here?
A: inactive: -4.89%

Q: For `Cc1cc(SC(NC(=O)c2ccc(F)cc2)C(Cl)(Cl)Cl)ncn1` (stereo not given), which activity change is on record?
A: inactive: 2.14%

Q: How did the activity change turn out when `CCOP(=O)(Nc1ccccc1)OCC` was run?
A: inactive: 1.02%

Q: With `Cc1ccc(NP(=O)(Oc2ccccc2F)Oc2ccccc2F)nc1` as the compound, how does the activity change read?
A: inactive: -4.85%

Q: With `CN(C(=O)Cc1ccc(Cl)c(Cl)c1)[C@H]1CCCC[C@@H]1N1CCCC1` as the compound, how does the activity change read?
A: inactive: 3.75%

Q: With `O=P(Nc1nc2ccc(Cl)cc2s1)(c1ccccc1)c1ccccc1` as the compound, how does the activity change read?
A: inactive: 0.267%

Q: How did the activity change turn out when `CN(C)P(=O)(N(C)C)n1c(Nc2ccccc2)nnc1-c1ccccc1` was run?
A: inactive: -0.512%

Q: For `CC(=O)Nc1ccc([As](=O)(O)O)cc1`, which activity change is on record?
A: inactive: -0.253%

Q: How did the activity change turn out when `O=C(O)c1ccccc1[As](=O)(O)O` was run?
A: inactive: 1.92%

Q: For `CCCC1OP(N)(=O)OCC1CC` (stereo not given), which activity change is on record?
A: inactive: 0.951%

Q: With `Nc1cccc2ccc([As](=O)(O)O)cc12` as the compound, how does the activity change read?
A: inactive: -0.357%

Q: Which activity change does the source give for `CCN(N=Nc1nonc1N)c1nonc1N` here?
A: inactive: 1.54%

Q: With `O=C(Nc1cc([As](=O)(O)O)ccc1O)c1ccccc1` as the compound, how does the activity change read?
A: inactive: -2.8%

Q: Which activity change does the source give for `O=P1(N(CCCl)CCCl)OCCCS1` (stereo not given) here?
A: inactive: -0.526%

Q: With `O=C(O)CNc1ccc([As](=O)(O)O)cc1` as the compound, how does the activity change read?
A: inactive: -4.28%

Q: With `COC(=O)C1(C)COP(=O)(Nc2ccccc2)OC1` (stereo not given) as the compound, how does the activity change read?
A: inactive: 1.19%

Q: For `O=[N+]([O-])c1cccc(NC2=NCC(CBr)S2)c1` (stereo not given), which activity change is on record?
A: inactive: -13.2%

Q: How did the activity change turn out when `O=[N+]([O-])c1ncn(CCn2ncnc2[N+](=O)[O-])n1` was run?
A: inactive: -2.05%

Q: `CC(C)(C)C(=O)NC(Sc1ccncn1)C(Cl)(Cl)Cl` (stereo not given) was tested. Which activity change did it give?
A: inactive: 0.588%

Q: How did the activity change turn out when `Cc1ccc(NP(=O)(Oc2ccccc2)Oc2ccccc2)nc1` was run?
A: inactive: -1.84%

Q: For `CCc1nc2c(n1)c1c(non1O)c1c2no[n+]1[O-]`, which activity change is on record?
A: inactive: -0.816%

Q: Which activity change does the source give for `O=[N+]([O-])c1cc([N+](=O)[O-])c(CCNc2ccccc2)c([N+](=O)[O-])c1` here?
A: inactive: -0.453%

Q: With `O=[N+]([O-])c1cccc2n[nH]nc12` as the compound, how does the activity change read?
A: inactive: 0.625%

Q: How did the activity change turn out when `CC(=O)N1C2C3N(C(C)=O)C1C1N(C(C)=O)C(C(N1C(C)=O)N3C(C)=O)N2C(C)=O` was run?
A: inactive: -0.021%

Q: How did the activity change turn out when `COc1ccc(C2=NCC(CBr)S2)cc1` (stereo not given) was run?
A: inactive: -0.414%

Q: How did the activity change turn out when `CC1CCN(C(=O)Oc2c(Cl)cc(Cl)c3cccnc23)CC1` was run?
A: inactive: -3.65%

Q: With `c1cc(-c2nn[nH]n2)ccc1-c1nn[nH]n1` as the compound, how does the activity change read?
A: inactive: -1.29%

Q: Which activity change does the source give for `CC(C)c1nc(Nc2ccccc2)n(P(=O)(N(C)C)N(C)C)n1` here?
A: inactive: 1.96%

Q: For `CC(C)=N/N=C(\N)N[N+](=O)[O-]`, which activity change is on record?
A: inactive: -0.752%

Q: With `CN(C)C(=O)OCCc1n(C)cc[n+]1C` as the compound, how does the activity change read?
A: inactive: -5.15%

Q: With `CCN(/C(=N/P(=O)(N1CCOCC1)N1CCOCC1)N1CCOCC1)c1ccc(OC)cc1` as the compound, how does the activity change read?
A: inactive: 1.83%

Q: How did the activity change turn out when `Nc1ccc([As](=O)(O)c2ccc(N)cc2)cc1` was run?
A: inactive: -0.604%

Q: For `C[N+]1=C2C=CC=CC=C2SC12C([N+](=O)[O-])=CC([N+](=O)[O-])=C[C-]2[N+](=O)[O-]` (stereo not given), which activity change is on record?
A: inactive: 0.0639%

Q: `O=C(O)C(=O)c1ccc(N(CCCl)CCCl)cc1` was tested. Which activity change did it give?
A: inactive: -2.99%

Q: For `O=C(COc1ccccc1)OC1CN2CCC1CC2` (stereo not given), which activity change is on record?
A: inactive: 1.21%

Q: For `O=C(Nc1ccncc1[N+](=O)[O-])c1ccc([N+](=O)[O-])cc1[N+](=O)[O-]`, which activity change is on record?
A: inactive: 0.796%

Q: `COP1(=S)c2c(C)nn(CCC#N)c2N=C(c2ccc(F)cc2)N1C` (stereo not given) was tested. Which activity change did it give?
A: inactive: -1.59%

Q: With `COC(=O)C1(C)COP(=O)(N2CCCC2)OC1` (stereo not given) as the compound, how does the activity change read?
A: inactive: -0.599%

Q: `CCC(C)N(CC(C)C)C(=S)SC(NC(C)=O)C(Cl)(Cl)Cl` (stereo not given) was tested. Which activity change did it give?
A: inactive: 1.52%

Q: Which activity change does the source give for `O=C(OC1CN2CCC1CC2)c1cccc([N+](=O)[O-])c1` (stereo not given) here?
A: inactive: -3.37%

Q: `CSc1ccc(Nc2c([N+](=O)[O-])cc([N+](=O)[O-])cc2[N+](=O)[O-])cc1` was tested. Which activity change did it give?
A: inactive: -0.476%

Q: How did the activity change turn out when `CCOC(=O)c1ccc(NC(=O)C(C)(CCl)SC)cc1` (stereo not given) was run?
A: inactive: -1.47%

Q: Which activity change does the source give for `COP(=O)(OC)N1CC1c1ccccc1` (stereo not given) here?
A: inactive: 0.103%

Q: Which activity change does the source give for `CCCCOc1ccc(C(=O)NCC2(N3CCCCC3)CCCCC2)cc1OC` here?
A: inactive: -2.01%

Q: For `Cc1cc(SC(NC(=O)c2ccccc2)C(Cl)(Cl)Cl)nc(C(C)C)n1` (stereo not given), which activity change is on record?
A: inactive: 0.954%

Q: `CCOC(=O)Nc1ccc([As](=O)(O)O)c(O)c1` was tested. Which activity change did it give?
A: inactive: -1.2%

Q: `O=C(O)C(O)c1ccc(N(CCCl)CCCl)cc1` (stereo not given) was tested. Which activity change did it give?
A: inactive: -3.38%
